Assay results taken from PubChem BioAssay AID720709 (National Center for Advancing Translational Sciences (NCATS), 2013).
Only a part is listed here, and it is no random draw. Inconclusive results are not listed. Active and inactive are the calls of the source. Calls come from the whole dose curve; as a rule, active = well fitted inhibition curve with a large enough effect; inconclusive = small, poorly fitted or top-dose-only effect; inactive = no such curve, though single readings can be large or run the other way.

Amino acid sequences for entries named in this document (tags omitted).
UniProt O95398, whole entry: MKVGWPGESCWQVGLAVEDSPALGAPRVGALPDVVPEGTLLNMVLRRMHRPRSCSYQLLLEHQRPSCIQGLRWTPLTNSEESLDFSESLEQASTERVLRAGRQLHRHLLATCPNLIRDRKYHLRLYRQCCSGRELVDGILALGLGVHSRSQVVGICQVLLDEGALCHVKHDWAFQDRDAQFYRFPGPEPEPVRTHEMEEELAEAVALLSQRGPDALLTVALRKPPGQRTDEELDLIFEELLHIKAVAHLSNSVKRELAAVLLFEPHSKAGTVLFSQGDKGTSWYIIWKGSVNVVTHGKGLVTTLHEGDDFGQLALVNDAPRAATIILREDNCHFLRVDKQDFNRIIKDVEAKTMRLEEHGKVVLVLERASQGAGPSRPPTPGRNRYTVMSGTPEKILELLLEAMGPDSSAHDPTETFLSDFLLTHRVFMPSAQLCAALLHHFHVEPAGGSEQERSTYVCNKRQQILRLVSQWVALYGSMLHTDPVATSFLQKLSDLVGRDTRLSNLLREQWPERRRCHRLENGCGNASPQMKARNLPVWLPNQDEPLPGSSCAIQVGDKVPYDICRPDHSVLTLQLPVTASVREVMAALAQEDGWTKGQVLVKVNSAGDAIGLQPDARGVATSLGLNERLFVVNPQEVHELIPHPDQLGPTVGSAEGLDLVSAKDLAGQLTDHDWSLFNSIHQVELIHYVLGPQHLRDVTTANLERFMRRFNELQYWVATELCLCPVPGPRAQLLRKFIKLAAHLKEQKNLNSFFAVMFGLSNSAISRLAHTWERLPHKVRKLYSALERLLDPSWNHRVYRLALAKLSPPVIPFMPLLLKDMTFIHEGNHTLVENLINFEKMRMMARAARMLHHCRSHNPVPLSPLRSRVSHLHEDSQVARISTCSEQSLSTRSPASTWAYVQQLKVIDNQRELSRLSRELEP

Each compound was assayed against Rap guanine nucleotide exchange factor 3 (Homo sapiens) (UniProt O95398) (assay: qHTS for Antagonist of cAMP-regulated guanine nucleotide exchange factor 3 (EPAC1): primary screen). Settings: EPAC1 GEF assay, Rap1b-BODIPY-GDP exchange fluorescence; at 115 µM (top of the series).
From the text: In multi-cellular eukaryotic organisms, the effects of cAMP are transduced by two ubiquitously-expressed intracellular cAMP receptors, the classic protein kinase A/cAMP-dependent protein kinase (PKA/cAPK) and the more recently discovered exchange protein directly activated by cAMP/cAMP-regulated guanine nucleotide exchange factor (EPAC/cAMP-GEF). Both PKA and EPAC are ubiquitously expressed in all tissues, and an increase in intracellular cAMP levels will lead to the activation of both PKA and EPAC. […] This qHTS will be used to screen the Molecular Libraries Small Molecule Repository (MLSMR) as a concentration-titration series using the NCGC unique quantitative screening (qHTS) platform to find inhibitors for EPAC1. […] Inhibitors are identified by monitoring the change in fluorescence signal as the exchanged free BODIPY-GDP has a reduced fluorescence compared to Rap1-bound BODIPY-GDP. […]
Briefly, three uL of reagents (100 nM EPAC1, 250 nM RAP1B-BODIPY-GDP, 50 uM GDP) were dispensed into a 1536-well Greiner black solid-bottom medium binding assay plate. […] The assay plates were read at 5 minute intervals for 30 minutes in the ViewLux plate reader using 480nm excitation and 540nm emission filters. […]
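Note: plate controls were vehicle for no effect and positive control for full effect; nearly all actives have a fitted effect of over 50% in size.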

Compound | activity change, negative = inhibition
CCC(=O)N(c1ccccc1)C1(COC)CCN(CCc2cccs2)CC1 | inactive: -3.81%
CCC(=O)N(c1ccccc1)C1(COC)CCN(CCn2nnn(CC)c2=O)CC1 | inactive: -4.02%
